Laboratory results: publication PMC10157742, “Supramolecular nanofibers co-loaded with dabrafenib and doxorubicin for targeted and synergistic therapy of differentiated thyroid carcinoma” (Theranostics, 2023)
Where two headings read alike, the source gives them in different places.

Tests used:
[1] = Critical assembly (aggregation) concentration by dynamic light scattering; type: physicochemical; conditions: DLS, 532 nm, room temperature (22-25 °C), PBS; drugs co-assembled at 5% w/w; lower CAC = better assembly
Protocol: To study the assembling ability of the peptides, the critical aggregation concentration (CAC) was determined by dynamic light scattering (DLS) using a laser light scattering spectrometer (BI-200SM) equipped with a digital correlator (BI- 9000AT) at 532 nm at room temperature (22‒25 °C). All containers were washed with acetone and dried under vacuum to eliminate dust, and the PBS solvent was filtered through a 0.22 μM sterile membrane prior to the measurement. Briefly, 100 μL of samples were placed in a specific dish, and the light scattering intensity of different concentrations of samples was optimized and recorded by 90 PLUS. The CAC values were analyzed and fitted using Origin 9.6. Lower CAC values represent a better assembly capacity of the sample.

[2] = PBS pH = 7.4; clear solution at a concentration of 0.1 wt%
[3] = mouse plasma (heparinized), 0.5 mg/mL, 37 °C, acetonitrile precipitation, LC-MS, n = 3
BCPAP cells = test: In vitro cytotoxicity, MTT assay; type: cell-based, human; conditions: SPNs 1.6-200 μM, 48 h, n = 3, at low concentrations
Protocol: (§1) The cytotoxicity of peptides, free agents, and the co-assemblies towards BCPAP and L02 cells was evaluated using the standard MTT assay. Briefly, the cells were seeded into 96-well plates at a density of 8×10^3 cells per well in 100μL of DMEM medium containing 10% FBS and 1% penicillin-streptomycin. After overnight pre-incubation, the cells were treated with the compound, free agents, and co-assemblies at different concentrations for 48 h. Untreated tumor cells were used as controls. Subsequently, the medium was replaced with an MTT solution (100 μL, 0.5 mg/mL) and further cultured for 4 h. Finally, the supernatant was removed and 100 μL of DMSO was added to each well to dissolve the purple crystals. Cell viability was measured using a microplate reader by recording the absorbance of the formazan product at 570 nm.

L02 cells = test: In vitro cytotoxicity, MTT assay; type: cell-based; conditions: SPNs 1.6-200 μM, 48 h, n = 3, at low concentrations
Protocol: as §1

Substance: Biotin-G^DF^DF^DYGRGD [SPNs]
- critical assembly concentration (CAC) [1]: 140.5 µM
- solubility in PBS [2]: good solubility
- SPNs remaining intact after incubation with plasma ([3]; 6 h): approximately 95%
- SPNs remaining intact after incubation with plasma ([3]; 12 h): approximately 88%
- SPNs remaining intact after incubation with plasma ([3]; 24 h): ~75%
- cellular viability / toxicity of the carrier (BCPAP cells): relatively low toxicity
- cellular viability / toxicity of the carrier (L02 cells): relatively low toxicity
